Measurements reported in US4139538A (dated 1979).

Experiment: in vivo
Settings: mouse, po

O=C1NC(=O)C(c2ccccc2)(c2ccccc2)N1 [Diphenylhydantoin, reference compound]
LD50 at 168 h: 360 mg/kg
